Test results from US20240239801A1, “PYRIMIDO[5,4,D]PYRIMIDINE COMPOUNDS, COMPOSITIONS COMPRISING THEM AND USES THEREOF” (Université de Montréal, priority 2021, published 2024).

Columns and labels:
Assay in all cases: Proliferation inhibition, CellTiter-Glo
A101D = conditions: read-out: A101D Prolif. EC50; Table D-1; 3 days
Description: (§1) All cancer cell lines (A375, A101D, A2058, RKO, HT29 SK-MEL 30, IPC298, HepG2, HCT-116, Lovo, SW620, SW480, NCI-H358, NCI-H2122, Calu-6, NCIH2087, NCIH1755, NCIH1666 and Mewo) were obtained from ATCC and cultured in RPMI-1640 medium (Gibco) supplemented with 5% heat inactivated fetal bovine serum (FBS, Wisent) at 37° C. under 5% CO2. Cells were maintained in T175 flasks (Greiner). They were passaged by removing the culture medium, washing once in 10 mL of room temperature Phosphate Buffered Saline (PBS; Wisent) and incubating at 37° C. with 2 mL of 0.05% Trypsin (Thermo-Fisher). Trypsin was then inactivated by adding complete growth medium and the cells were then replated in a T175 culture dish at the appropriate dilution. All cell lines were routinely tested for mycoplasma contamination. Tissue type and mutational status of each cell line can be found in Table B.
(§2) CellTiter-Glo® viability analysis was conducted on cells plated in […] of complete RPMI-1640 growth medium in 96-well flat-bottomed white opaque plates (Greiner or Corning) at a density indicated in Table E (for each CCL, number of cells plated per well of a 96-well plate to perform the CellTiter-Glo® cell viability assay). The cell density in cells/cm^2 would correspond to cell number divided by the area of one well of a 96-well plate (0.32 cm^2). Cells were maintained overnight at 37° C. under 5% CO2 before treatment with compounds' dilution series for 3 days.
(§3) In a dilution series 100 μL/well of test substance dilution prepared in complete RPMI-1640 growth media was added to the cells plated initially in 100 μL of growth media. The dilution series is selected so that ten concentrations cover a range from 30 μM or 10 μM to […]. If necessary (as in the case of A375 cells, which were more sensitive to the compounds) the initial concentration of 10 μM is lowered to 1 μM and further dilution is carried out accordingly. The final concentration of DMSO in the assay is set to 0.5%.
(§4) After 3 days of incubation, the growth media were removed by aspiration and 60 μL of diluted CellTiter-Glo® reagent (10 μL CellTiter-Glo® reagent+50 μL of PBS) was added to each well. Cells were allowed to lyse and to equilibrate in CellTiter-Glo® reagent by 5 min incubation on a plate shaker followed by 10 min incubation at room temperature. Luminescence signals were then acquired on a Synergy Neo2 plate reader (Biotek).
(§5) The effect of each compound dilution on the proliferation of cancer cell lines was expressed in % inhibition and calculated as follows. An internal 100% inhibition control (1 μM of trametinib; cat. No. HY-10999; MedChem Express; CAS No. 871700-17-3) was included in each plate and used as a measure of CellTiter-Glo® signal background. The value obtained for trametinib was subtracted from each data point. The average of DMSO (vehicle) controls (set as 0% inhibition) was established and used to calculate % inhibition:
(§6) The ability of each compound to inhibit proliferation was expressed as a EC50 value obtained by plotting the effect values for each data point of a dilution series and fitting the obtained curves using a log(agonist) versus response−variable slope (four parameters) function using GraphPadPrism (V7.0) or Dotmatics Screening Ultra platform.

A2058 = conditions: read-out: A2058 Prolif. EC50; Table D-1; 3 days
Description: as §1, §2, §3, §4, §5, §6

A375 = conditions: read-out: A375 Prolif. EC50; Table D-1; 3 days
Description: as §1, §2, §3, §4, §5, §6

Calu6 = conditions: read-out: Calu6 Prolif. EC50; Table D-2; 3 days
Description: as §1, §2, §3, §4, §5, §6

HCT116 = conditions: read-out: HCT116 Prolif. EC50; Table D-1; 3 days
Description: as §1, §2, §3, §4, §5, §6

HT-29 = conditions: read-out: HT-29 Prolif. EC50; Table D-1; 3 days
Description: as §1, §2, §3, §4, §5, §6

HepG2 = conditions: read-out: HepG2 Prolif. EC50; Table D-1; 3 days
Description: as §1, §2, §3, §4, §5, §6

NCI-H2122 = conditions: read-out: NCI-H2122 Prolif. EC50; Table D-2; 3 days
Description: as §1, §2, §3, §4, §5, §6

RKO = conditions: read-out: RKO Prolif. EC50; Table D-1; 3 days
Description: as §1, §2, §3, §4, §5, §6

SK-MEL30 = conditions: read-out: SK-MEL30 Prolif. EC50; Table D-1; 3 days
Description: as §1, §2, §3, §4, §5, §6

SW480 = conditions: read-out: SW480 Prolif. EC50; Table D-2; 3 days
Description: as §1, §2, §3, §4, §5, §6

EC50 (A375) [nM] | EC50 (Calu6) [nM] | EC50 (HCT116) [nM] | EC50 (HT-29) [nM] | EC50 (HepG2) [nM] | EC50 (NCI-H2122) [nM] | EC50 (SK-MEL30) [nM] | EC50 (SW480) [nM] | SMILES | EC50 (A101D) [nM] | EC50 (A2058) [nM] | EC50 (RKO) [nM]
< 300 | 300 to 3000 | 300 to 3000 | < 300 | < 300 | > 3000 | < 300 | > 3000 | COc1ccc(S(=O)(=O)Nc2ccc(F)c(Nc3ncnc4cnc(-n5cc(S(=O)(=O)N(C)CCN(C)C)c6ccccc65)nc34)c2F)c(C)c1Cl | < 300 | < 300 | < 300
< 300 | < 300 | < 300 | < 300 | < 300 | 300 to 3000 | < 300 | 300 to 3000 | O=S(=O)(Nc1ccc(F)c(Nc2ncnc3cnc(-n4cnc5c(N6CCC(O)(C(F)(F)F)CC6)cccc54)nc23)c1F)c1cccc(Cl)c1Cl | < 300 | < 300 | < 300
